From patent publication US20220273666A1, “NANOPARTICLE FORMULATION OF BCL-2 INHIBITOR” (Recurium IP Holdings, LLC, priority 2019, published 2022) come the findings set out here.

Chains of the proteins cited; added tags and fusions are not shown.
UniProt Q07817, whole entry: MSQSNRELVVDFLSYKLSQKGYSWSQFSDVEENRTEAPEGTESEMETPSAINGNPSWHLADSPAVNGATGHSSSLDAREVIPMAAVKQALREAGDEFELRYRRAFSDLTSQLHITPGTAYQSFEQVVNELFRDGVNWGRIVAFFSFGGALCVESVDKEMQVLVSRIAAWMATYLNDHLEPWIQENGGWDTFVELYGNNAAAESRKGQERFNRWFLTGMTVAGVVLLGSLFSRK
UniProt P10415, whole entry: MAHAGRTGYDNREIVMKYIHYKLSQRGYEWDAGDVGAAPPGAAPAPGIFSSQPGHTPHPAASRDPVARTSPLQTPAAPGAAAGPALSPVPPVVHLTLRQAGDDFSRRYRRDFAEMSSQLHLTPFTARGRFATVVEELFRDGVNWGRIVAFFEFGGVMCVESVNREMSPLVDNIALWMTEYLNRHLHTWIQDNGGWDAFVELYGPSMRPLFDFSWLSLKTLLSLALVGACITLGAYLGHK

The term pIC50 denotes the IC50 on a negative log10 scale, so that one unit is a factor of ten. As a reminder, the pKd is the negative decadic logarithm of the Kd, by convention in mol/L.

Assay [1] has as its target T1, Bcl-XL (Homo sapiens, UniProt Q07817). The assay is described as follows: Bcl-2/Bcl-XL HTRF assay. The class given is binding. Conditions: read-out: Bcl-XL IC50, 3 nM Bcl-XL, 40 nM FAM-Bad peptide. On the technique in general: TR-FRET usually uses a lanthanide donor and a delayed reading to cut background.
In assay [2] the target is T1, Bcl-XL. The assay is described as follows: Bcl-2 protein family binding assay (Bcl2scan platform). Conditions: read-out: Bcl-XL Kd, BIM peptide ligand, 11-point dilution.
The target of another assay is Bcl-2 (Homo sapiens, UniProt P10415). The description is as above. The following applies: read-out: Bcl-2 Kd, BIM peptide ligand, 11-point dilution.

The structures appear in SMILES notation. pIC50, pKd: −log10 of the molar value.

In the case of `CCN(CCO)CC[C@H](CSc1ccccc1)Nc1ccc(S(=O)(=O)NC(=O)c2ccc(N3CCN(CC4=C(C56CC(C(F)F)(C5)C6)CC(C)(C)CC4)CC3)cc2)cc1S(=O)(=O)C(F)(F)F`, the pIC50 at Bcl-XL [1] was over 8.00.
Take `CC1(C)CCC(CN2CCN(c3ccc(C(=O)NS(=O)(=O)c4ccc(N[C@H](CCN5CCOCC5)CSc5ccccc5)c(S(=O)(=O)C(F)(F)F)c4)cc3)CC2)=C(C23CC(C(F)F)(C2)C3)C1`: on Bcl-XL [1], the negative logarithm of the IC50 (pIC50) was over 8.00.
`CN(C)CC[C@H](CSc1ccccc1)Nc1ccc(S(=O)(=O)NC(=O)c2ccc(N3CCN(CC4=C(C56CC(C(F)F)(C5)C6)CC(C)(C)CC4)CC3)cc2)cc1S(=O)(=O)C(F)(F)F`: the negative-log IC50 (pIC50) at Bcl-XL [1] was over 8.00.
As for `CC1(C)CCC(CN2CCN(c3ccc(C(=O)NS(=O)(=O)c4ccc(NCC5CCOCC5)c([N+](=O)[O-])c4)c(Oc4cnc5[nH]ccc5c4)c3)CC2)=C(C23CC(C(F)F)(C2)C3)C1`, the pKd on Bcl-XL [2] was under 7.00.
In the case of `O=C(NS(=O)(=O)c1ccc(N[C@H](CCN2CCC(O)CC2)CSc2ccccc2)c(S(=O)(=O)C(F)(F)F)c1)c1ccc(N2CCN(CC3=C(C45CC(C(F)F)(C4)C5)CC4(CCC4)CC3)CC2)cc1`, at Bcl-XL [1], the negative-log IC50 (pIC50) was over 8.00.
Consider `CCC12CC(C3=C(CN4CCN(c5ccc(C(=O)NS(=O)(=O)c6ccc(NCC7CCOCC7)c([N+](=O)[O-])c6)c(Oc6cnc7[nH]ccc7c6)c5)CC4)CCC(C)(C)C3)(C1)C2`, for which the negative logarithm of the Kd (pKd) at Bcl-XL [2] is under 7.00.
As to `CC1(C)CCC(CN2CCN(c3ccc(C(=O)NS(=O)(=O)c4ccc(NCC5CCOCC5)c([N+](=O)[O-])c4)c(Oc4cnc5[nH]ccc5c4)c3)CC2)=C(C23CC(C(C)(F)F)(C2)C3)C1`, the negative-log Kd (pKd) on Bcl-XL [2] is under 7.00.
For the compound `CC1(C)CCC(CN2CCN(c3ccc(C(=O)NS(=O)(=O)c4ccc(NCC5CC6(CCOCC6)C5)c([N+](=O)[O-])c4)c(Oc4cnc5[nH]ccc5c4)c3)CC2)=C(C23CC(C)(C2)C3)C1`, the pKd at Bcl-XL [2] is under 7.00.
As for `CC1(C)CCC(CN2CCN(c3ccc(C(=O)NS(=O)(=O)c4ccc(OCC5(F)CCOCC5)c([N+](=O)[O-])c4)c(Oc4cnc5[nH]ccc5c4)c3)CC2)=C(C23CC(C(F)F)(C2)C3)C1`, on Bcl-XL [2], the pKd was 7.00 to 8.00.
In the case of `CN1CCOC(CNc2ccc(S(=O)(=O)NC(=O)c3ccc(N4CCN(CC5=C(C67CC(C)(C6)C7)CC(C)(C)CC5)CC4)cc3Oc3cnc4[nH]ccc4c3)cc2[N+](=O)[O-])C1` (stereo not drawn), the negative-log Kd (pKd) at Bcl-XL [2] was 7.00 to 8.00.
For `CC1(C)CCC(C23CC(C)(C2)C3)=C(CN2CCN(c3ccc(C(=O)NS(=O)(=O)c4ccc(N[C@H](CCN5CCC(O)CC5)CSc5ccccc5)c(S(=O)(=O)C(F)(F)F)c4)cc3)CC2)C1`, at Bcl-XL [2], the negative-log Kd (pKd) is 7.00 to 8.00. The pIC50 at Bcl-XL [1] is over 8.00.
In the case of `CC1(C)CCC(CN2CCN(c3ccc(C(=O)NS(=O)(=O)c4ccc(OCC5(F)CCOCC5)c([N+](=O)[O-])c4)c(Oc4cnc5[nH]ccc5c4)c3)CC2)=C(C23CC(C(F)(F)F)(C2)C3)C1`, the pKd at Bcl-XL [2] is under 7.00.
Consider `CC1(C)CCC(CN2CCN(c3ccc(C(=O)NS(=O)(=O)c4ccc(N[C@H](CCN5CCC(O)CC5)CSc5ccccc5)c(S(=O)(=O)C(F)(F)F)c4)cc3)CC2)=C(C23CC(C(F)F)(C2)C3)C1`, for which the pIC50 on Bcl-XL [1] is over 8.00.
`CC1(C)CCC(CN2CCN(c3ccc(C(=O)NS(=O)(=O)c4ccc(N[C@H](CCN5CCN(CCO)CC5)CSc5ccccc5)c(S(=O)(=O)C(F)(F)F)c4)cc3)CC2)=C(C23CC(C(F)F)(C2)C3)C1`: the negative-log IC50 (pIC50) at Bcl-XL [1] was over 8.00.
As to `CC1(C)CCC(CN2CCN(c3ccc(C(=O)NS(=O)(=O)c4ccc(NCC5(F)CCOCC5)c([N+](=O)[O-])c4)c(Oc4cnc5[nH]ccc5c4)c3)CC2)=C(C23CC(C(F)F)(C2)C3)C1`, the negative logarithm of the Kd (pKd) on Bcl-XL [2] is under 7.00.
With `CC1(C)CCC(CN2CCN(c3ccc(C(=O)NS(=O)(=O)c4ccc(NCC5(F)CCOCC5)c([N+](=O)[O-])c4)c(Oc4cnc5[nH]ccc5c4)c3)CC2)=C(C23CC(C)(C2)C3)C1`, the negative logarithm of the Kd (pKd) at Bcl-XL [2] is under 7.00. Besides, the pIC50 at Bcl-XL [1] is under 7.00.
Turning to `CC1(C)CCC(CN2CCN(c3ccc(C(=O)NS(=O)(=O)c4ccc(NC[C@H]5CC[C@](C)(O)CC5)c([N+](=O)[O-])c4)c(Oc4cnc5[nH]ccc5c4)c3)CC2)=C(C23CC(C(F)F)(C2)C3)C1`, at Bcl-XL [2], the negative-log Kd (pKd) is under 7.00. Further, the pIC50 at Bcl-XL [1] was 7.00 to 8.00.
`CC1(C)CCC(CN2CCN(c3ccc(C(=O)NS(=O)(=O)c4ccc(NCC5CCOCC5)c([N+](=O)[O-])c4)c(Oc4cnc5[nH]ccc5c4)c3)CC2)=C(C23CC(C(F)(F)F)(C2)C3)C1`: the negative-log Kd (pKd) at Bcl-XL [2] was under 7.00.
`CC1(C)CCC(CN2CCN(c3ccc(C(=O)NS(=O)(=O)c4ccc(N[C@H](CCN5CCOCC5)CSc5ccccc5)c([N+](=O)[O-])c4)cc3)CC2)=C(C23CC(C(F)F)(C2)C3)C1`: on Bcl-XL [1], the pIC50 was over 8.00.
With `CC1(C)CCC(CN2CCN(c3ccc(C(=O)NS(=O)(=O)c4ccc(NCC5CCOCC5)c([N+](=O)[O-])c4)c(Oc4cnc5[nH]ccc5c4)c3)CC2)=C(C23CC(C)(C2)C3)C1`, the negative logarithm of the Kd (pKd) at Bcl-XL [2] was under 7.00.
The same measure, in the same setting: to `CC1(C)CCC(C23CC(C)(C2)C3)=C(CN2CCN(c3ccc(C(=O)NS(=O)(=O)c4ccc(N[C@H](CCN5CCOCC5)CSc5ccccc5)c(S(=O)(=O)C(F)(F)F)c4)cc3)CC2)C1` belongs 7.00 to 8.00; to `CC1(C)CCC(CN2CCN(c3ccc(C(=O)NS(=O)(=O)c4ccc(NCC5CCOCC5)c([N+](=O)[O-])c4)c(Oc4cnc5[nH]ccc5c4)c3)CC2)=C(C23CC(Cl)(C2)C3)C1`, under 7.00; to `CCC12CC(C3=C(CN4CCN(c5ccc(C(=O)NS(=O)(=O)c6ccc(OCC7(F)CCOCC7)c([N+](=O)[O-])c6)c(Oc6cnc7[nH]ccc7c6)c5)CC4)CCC(C)(C)C3)(C1)C2`, under 7.00.
Consider `CN(CCO)CC[C@H](CSc1ccccc1)Nc1ccc(S(=O)(=O)NC(=O)c2ccc(N3CCN(CC4=C(C56CC(C)(C5)C6)CC(C)(C)CC4)CC3)cc2)cc1S(=O)(=O)C(F)(F)F`, for which the negative-log IC50 (pIC50) at Bcl-XL [1] was over 8.00.
As to `CCC12CC(C3=C(CN4CCN(c5ccc(C(=O)NS(=O)(=O)c6ccc(NC[C@H]7CC[C@](C)(O)CC7)c([N+](=O)[O-])c6)c(Oc6cnc7[nH]ccc7c6)c5)CC4)CCC(C)(C)C3)(C1)C2`, the pKd at Bcl-XL [2] was under 7.00.
For `CC1(C)CCC(CN2CCN(c3ccc(C(=O)NS(=O)(=O)c4ccc(NC[C@H]5CC[C@](C)(O)CC5)c([N+](=O)[O-])c4)c(Oc4cnc5[nH]ccc5c4)c3)CC2)=C(C23CC(C)(C2)C3)C1`, the pKd at Bcl-XL [2] is under 7.00. For the same compound, the pIC50 on Bcl-XL [1] is under 7.00.
Take `CC1(C)CCC(C23CC(Cl)(C2)C3)=C(CN2CCN(c3ccc(C(=O)NS(=O)(=O)c4ccc(N[C@H](CCN5CCC(O)CC5)CSc5ccccc5)c(S(=O)(=O)C(F)(F)F)c4)cc3)CC2)C1`: the negative logarithm of the IC50 (pIC50) at Bcl-XL [1] was over 8.00.
With `CN(C)CC[C@H](CSc1ccccc1)Nc1ccc(S(=O)(=O)NC(=O)c2ccc(N3CCN(CC4=C(C56CC(C)(C5)C6)CC(C)(C)CC4)CC3)cc2)cc1S(=O)(=O)C(F)(F)F`, the pIC50 on Bcl-XL [1] was over 8.00.
On to `CC(C)C12CC(C3=C(CN4CCN(c5ccc(C(=O)NS(=O)(=O)c6ccc(NCC7CCOCC7)c([N+](=O)[O-])c6)c(Oc6cnc7[nH]ccc7c6)c5)CC4)CCC(C)(C)C3)(C1)C2`, for which the pKd is 7.00 to 8.00 on Bcl-2 and under 7.00 at Bcl-XL [2].
`CC1(C)CCC(CN2CCN(c3ccc(C(=O)NS(=O)(=O)c4ccc(NCC5(F)CCOCC5)c([N+](=O)[O-])c4)c(Oc4cnc5[nH]ccc5c4)c3)CC2)=C(C23CC(C(F)(F)F)(C2)C3)C1`: the pKd at Bcl-XL [2] was under 7.00.
`CN(CCO)CC[C@H](CSc1ccccc1)Nc1ccc(S(=O)(=O)NC(=O)c2ccc(N3CCN(CC4=C(C56CC(C(F)F)(C5)C6)CC(C)(C)CC4)CC3)cc2)cc1S(=O)(=O)C(F)(F)F`: the negative-log IC50 (pIC50) at Bcl-XL [1] was over 8.00.
In the case of `CC1(C)CCC(CN2CCN(c3ccc(C(=O)NS(=O)(=O)c4ccc(OCC5(F)CCOCC5)c([N+](=O)[O-])c4)c(Oc4cnc5[nH]ccc5c4)c3)CC2)=C(C23CC(C)(C2)C3)C1`, at Bcl-XL [2], the negative-log Kd (pKd) is under 7.00.
Take `CN(C)C1CCN(CC[C@H](CSc2ccccc2)Nc2ccc(S(=O)(=O)NC(=O)c3ccc(N4CCN(CC5=C(C67CC(C(F)F)(C6)C7)CC(C)(C)CC5)CC4)cc3)cc2S(=O)(=O)C(F)(F)F)CC1`: the pIC50 on Bcl-XL [1] is over 8.00.
On to `CCC12CC(C3=C(CN4CCN(c5ccc(C(=O)NS(=O)(=O)c6ccc(NCC7(F)CCOCC7)c([N+](=O)[O-])c6)c(Oc6cnc7[nH]ccc7c6)c5)CC4)CCC(C)(C)C3)(C1)C2`, for which the negative logarithm of the Kd (pKd) at Bcl-XL [2] was under 7.00.
In the case of `CN1CCC(F)(CNc2ccc(S(=O)(=O)NC(=O)c3ccc(N4CCN(CC5=C(C67CC(C(F)F)(C6)C7)CC(C)(C)CC5)CC4)cc3Oc3cnc4[nH]ccc4c3)cc2[N+](=O)[O-])CC1`, the pKd on Bcl-XL [2] is 7.00 to 8.00.
Take `CC1(C)CCC(CN2CCN(c3ccc(C(=O)NS(=O)(=O)c4ccc(N[C@H](CCN5CCNCC5)CSc5ccccc5)c(S(=O)(=O)C(F)(F)F)c4)cc3)CC2)=C(C23CC(C(F)F)(C2)C3)C1`: at Bcl-XL [1], the pIC50 was over 8.00.
As for `CN1CCC(F)(CNc2ccc(S(=O)(=O)NC(=O)c3ccc(N4CCN(CC5=C(C67CC(C)(C6)C7)CC(C)(C)CC5)CC4)cc3Oc3cnc4[nH]ccc4c3)cc2[N+](=O)[O-])CC1`, the negative logarithm of the Kd (pKd) at Bcl-XL [2] was under 7.00.
On to `CC1(C)CCC(CN2CCN(c3ccc(C(=O)NS(=O)(=O)c4ccc(NCC5CCOCC5)c([N+](=O)[O-])c4)c(Oc4cnc5[nH]ccc5c4)c3)CC2)=C(C23CC(F)(C2)C3)C1`, for which, at Bcl-XL [2], the pKd was under 7.00.
On to `CCC12CC(C3=C(CN4CCN(c5ccc(C(=O)NS(=O)(=O)c6ccc(N[C@H](CCN(C)CCO)CSc7ccccc7)c(S(=O)(=O)C(F)(F)F)c6)cc5)CC4)CCC(C)(C)C3)(C1)C2`, for which the pIC50 on Bcl-XL [1] is over 8.00.
With `CC1(C)CCC(CN2CCN(c3ccc(C(=O)NS(=O)(=O)c4ccc(NC[C@H]5CC[C@](C)(O)CC5)c([N+](=O)[O-])c4)c(Oc4cnc5[nH]ccc5c4)c3)CC2)=C(C23CC(C(F)(F)F)(C2)C3)C1`, at Bcl-XL [2], the pKd was under 7.00.
